Results as given in patent US12350272B2, “Pyridopyrimidinone derivatives for use as AXL inhibitors” (OSCOTEC INC., priority 2018, dated 2025).

Legend:
[1] = tested on: MDA-MB-231 cells; assay: Cell viability assay (ATPLite), MDA-MB-231; assay type: cell-based; conditions: Homo sapiens, 72 hour incubation
Method: (§1) Compounds of Formula (I) as obtained above are tested for their effects on inhibition of proliferation of Axl-harboring triple-negative breast cancer cell lines (MDA-MB-231 and Hs578T) and Axl negative breast cancer cell lines (MCF7). Axl is a member of the TAM (TYRO3-Axl-MER) family of receptor tyrosine kinases, which, when activated, can increase tumor cell survival, proliferation, migration and invasion, angiogenesis, and tumor-host interactions. Upon GAS6 binding to Axl, Axl subsequently activates the signaling pathways downstream such as phosphoinositide 3-kinase (PI3K), RAt sarcoma (RAS), and extracellular signal regulated kinase (ERK).
(§2) For cell viability assay, MDA-MB-231 and Hs578T cells expressing human Axl were obtained from the American Type Culture Collection (ATCC, Manassas, VA). This cell line was maintained with an Roswell Park Memorial Institute (RPMI) medium (HYCLONE™) containing 10% bovine calf serum (BCS; HYCLONE™) supplemented iron. The cells were seeded at 2×10^4 cells in 96-well culture plates, and serially diluted compounds were then added. After a 72 hour incubation period at 37° C., cell viability was measured using the ATPLite 1 step assay (PERKIN-ELMER™) that is based on the quantification of ATP from viable cells. […]

[2] = tested on: Hs578T cells; assay: Cell viability assay (ATPLite), Hs578T; assay type: cell-based; conditions: Homo sapiens, Hs-578T; 72 hour incubation
Method: as §1, §2

CN1CCC(Nc2nc(Nc3ccc(Oc4ccccc4)cc3)c3c(=O)[nH]cc(Br)c3n2)CC1 [Compound 222, 8-bromo-2-((1-methylpiperidin-4-yl)amino)-4-((4-phenoxyphenyl)amino)pyrido[4,3-d]pyrimidin-5(6H)-one]
GI50 [1]: 3.1 to 10 µM | GI50 [2]: 3.1 to 10 µM
